Experimental data taken from paper PMC10979493.

Amino acid sequences for entries named in this document (tags omitted). A change or cut given only in a name is not applied to a line headed by its entry. Residues count along the entry.
UniProt P40763, 127-722 limits assumed: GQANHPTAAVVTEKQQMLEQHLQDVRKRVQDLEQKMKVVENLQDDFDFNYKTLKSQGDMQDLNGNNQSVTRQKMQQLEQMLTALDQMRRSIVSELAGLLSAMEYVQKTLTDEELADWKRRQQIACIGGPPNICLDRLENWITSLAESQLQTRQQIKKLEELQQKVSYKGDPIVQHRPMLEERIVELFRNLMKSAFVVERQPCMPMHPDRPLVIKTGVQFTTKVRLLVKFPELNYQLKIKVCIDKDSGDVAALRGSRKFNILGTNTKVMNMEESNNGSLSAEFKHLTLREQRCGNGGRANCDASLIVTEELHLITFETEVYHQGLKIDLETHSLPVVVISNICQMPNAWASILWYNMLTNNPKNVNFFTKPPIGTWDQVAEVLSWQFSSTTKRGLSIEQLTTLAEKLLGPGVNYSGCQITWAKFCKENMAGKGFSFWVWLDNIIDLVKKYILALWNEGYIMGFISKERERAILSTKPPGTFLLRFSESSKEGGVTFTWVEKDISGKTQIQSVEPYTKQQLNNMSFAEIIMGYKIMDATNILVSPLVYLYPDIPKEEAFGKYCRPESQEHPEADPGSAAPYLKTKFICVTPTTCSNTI
UniProt P40763, 586-685 E638A limits assumed: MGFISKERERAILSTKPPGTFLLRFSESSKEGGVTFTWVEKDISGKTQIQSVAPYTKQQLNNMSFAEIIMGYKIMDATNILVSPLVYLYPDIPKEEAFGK
UniProt P40763, 586-685 I634A limits assumed: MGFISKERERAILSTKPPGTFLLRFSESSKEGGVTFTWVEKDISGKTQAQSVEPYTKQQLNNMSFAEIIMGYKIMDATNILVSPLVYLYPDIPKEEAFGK
UniProt P40763, 586-685 N647A limits assumed: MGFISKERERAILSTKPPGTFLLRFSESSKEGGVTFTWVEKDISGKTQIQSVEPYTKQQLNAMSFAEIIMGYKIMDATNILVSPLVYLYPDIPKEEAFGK
UniProt P40763, 586-685 V637A limits assumed: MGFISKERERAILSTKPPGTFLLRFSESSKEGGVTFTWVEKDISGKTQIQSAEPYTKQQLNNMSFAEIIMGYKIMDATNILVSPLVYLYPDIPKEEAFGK
UniProt P05177, whole entry: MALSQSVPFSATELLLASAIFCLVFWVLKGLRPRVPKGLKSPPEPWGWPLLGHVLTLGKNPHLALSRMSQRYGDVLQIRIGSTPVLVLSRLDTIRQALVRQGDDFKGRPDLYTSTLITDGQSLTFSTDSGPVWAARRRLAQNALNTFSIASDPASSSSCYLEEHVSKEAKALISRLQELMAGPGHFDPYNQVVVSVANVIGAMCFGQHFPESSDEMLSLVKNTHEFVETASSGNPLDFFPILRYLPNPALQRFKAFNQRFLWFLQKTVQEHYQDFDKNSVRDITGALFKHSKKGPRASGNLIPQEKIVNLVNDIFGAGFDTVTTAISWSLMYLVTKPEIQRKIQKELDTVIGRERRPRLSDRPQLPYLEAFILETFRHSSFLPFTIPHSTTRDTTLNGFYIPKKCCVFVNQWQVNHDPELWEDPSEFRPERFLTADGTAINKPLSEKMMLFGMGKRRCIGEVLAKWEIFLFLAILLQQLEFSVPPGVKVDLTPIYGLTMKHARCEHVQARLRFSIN
UniProt P33261, whole entry: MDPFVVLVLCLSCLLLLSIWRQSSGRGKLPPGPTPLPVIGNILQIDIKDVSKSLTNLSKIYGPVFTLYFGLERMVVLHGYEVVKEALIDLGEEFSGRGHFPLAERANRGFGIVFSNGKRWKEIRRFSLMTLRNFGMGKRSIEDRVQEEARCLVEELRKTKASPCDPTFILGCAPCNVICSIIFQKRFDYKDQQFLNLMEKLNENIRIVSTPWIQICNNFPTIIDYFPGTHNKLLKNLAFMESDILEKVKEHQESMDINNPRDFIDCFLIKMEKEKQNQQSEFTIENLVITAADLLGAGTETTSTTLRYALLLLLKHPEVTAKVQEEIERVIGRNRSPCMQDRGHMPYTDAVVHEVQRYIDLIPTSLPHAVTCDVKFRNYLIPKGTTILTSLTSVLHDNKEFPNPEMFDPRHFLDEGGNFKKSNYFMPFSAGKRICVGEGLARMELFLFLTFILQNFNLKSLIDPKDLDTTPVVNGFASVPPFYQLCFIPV

Experiments:
SH2-V637A = SH2-V637A (Homo sapiens, UniProt P40763, V637A); experiment: MST binding to STAT3-SH2 mutant V637A
Text: (§1) STAT1 (amino acid residues 127–716), STAT2 (amino acid residues 138–702), STAT3 (amino acid residues 127–722), STAT4 (amino acid residues 133–705), STAT5B (amino acid residues 136–703) and STAT6 (amino acid residues 113–658) were cloned into the pET28A vector. STAT3-SH2 (amino acid residues 586–685) and the mutants of the STAT3-SH2 produced by site-directed mutagenesis were also cloned into the pET28A vector. All recombinant human fusion proteins were expressed in E. coli BL21 (DE3). Then, according to different induction conditions, the protein expression was induced. During the induction of the expression of STAT3-SH2 and all the mutants, STAT1, STAT2, STAT3 and STAT6, when the OD value reached about 0.6–1.0, the E. coli was transferred to 22 °C and 0.5 mM Isopropyl β-D-1-thiogalactopyranoside (IPTG) was added. For the expression of STAT4 and STAT5B when the OD value reached about 0.5–0.6, the E. coli was transferred to 30 °C for 2.5–3 h and 0.2 mM IPTG was added.
(§2) Microscale thermophoresis (MST) was conducted as previously described.[28] Binding affinities of YY002, Stattic against purified STAT3^127–722 and STAT3-SH2 protein or YY002 against STAT3-SH2 WT and mutants were measured by a Monolith NT.115 (Nanotemper Technologies). […] The samples were then loaded into premium capillaries (NanoTemper Technologies) and measured at 25 °C using 20%–40% LED power and medium MST power. […]

MDA-MB-231 tumor = experiment: MDA-MB-231 xenograft model
[1] = Liver microsome stability, dog
Capan-2 cells = experiment: Capan-2 proliferation (MTS), comparison with STAT3 inhibitors; conditions: vs C188-9, BP-1–102, Stattic, FLLL32, AZD1480, BBI-608
Method: acute myeloid leukemia cell line (KG1), human atrial fibroblast (HAF), human […]
umbilical vein endothelial cell line (HUVEC), human embryonic kidney cell line […]
(HEK293T) was purchased from Cell Bank/Stem Cell Bank of the Chinese Academy […]
of Sciences and American Type Culture Collection (ATCC). Capan-2, PANC-1 and […]
HEK293T were cultured in Dulbecco’s Modified Eagle’s Medium (DMEM) supplemented with 10% fetal bovine serum (FBS) and 1% penicillin-streptomycin, and […]
additional 2.5% horse serum was added in the medium of MIA PaCa-2; AsPC-1, BxPC- […]
3, PC3 and KG1 were cultured in RPMI 1640 medium supplemented with 10%-20% […]
FBS and 1% penicillin-streptomycin; HPAC was cultured in Dulbecco's Modified […]
Eagle Medium/Nutrient Mixture F-12 medium (DMEM/F-12), SW1990 was cultured […]
in Leibovitz's L-15 Medium, CFPAC-1 was cultured in Iscove's Modified Dulbecco's […]
Medium. HUVEC was cultured in Ham's F-12K supplemented with 0.1mg/mL Heparin, […]
0.03-0.05mg/mL ECGs, 10% FBS and 1% penicillin-streptomycin. HAF was cultured […]
in Fibroblast Medium supplemented with 10% FBS, 1% Fibroblast Growth Supplement […]
(FGS) and 1% penicillin-streptomycin.
Cell viability was measured by MTS assay following the manufacturer ’s instructions.
Briefly, cancer cells or normal cells were seeded in 96-well plates at appropriate […]

[2] = test system: STAT3 nuclear translocation; experiment: Immunofluorescence of STAT3 nuclear translocation; conditions: IL6 stimulated
Method: BxPC-3 and Capan-2 cells were cultured on glass coverslips at a density of 10^5 per well of 24-well plate. After treating with YY002 for 24 h, IL-6 was added for 30 min stimulation. Then, the culture medium was removed, and the cell slides were fixed with 4% paraformaldehyde for 15 min and permeated by 0.2%Triton X-100 for 20 min. Next, after PBS wash and blocking in 0.5% BSA, primary antibodies were added to incubate with cells overnight at 4 °C, and then, cells were incubated with corresponding secondary antibodies for 1 h at room temperature. Finally, DAPI was added and a confocal microscope (Leica) was used to record images.

SH2-E638A = SH2-E638A (Homo sapiens, UniProt P40763, E638A); experiment: MST binding to STAT3-SH2 mutant E638A
Text: as §1, §2

CYP1A2 = CYP1A2 (Homo sapiens, UniProt P05177)
STAT3-SH2D mutant I634A = STAT3-SH2D mutant I634A (Homo sapiens, UniProt P40763, I634A); experiment: MST binding to STAT3-SH2 mutant I634A
Text: as §1, §2

STAT3^127–722 = STAT3^127–722 (Homo sapiens, UniProt P40763); experiment: MST binding to STAT3 127–722
Text: as §1, §2

OXPHOS = experiment: Oxygen consumption rate (OXPHOS), Seahorse; conditions: BxPC-3, CFPAC-1 and Capan-2 cells
PAN02-luc cells = experiment: Liver metastasis model of pancreatic cancer (PAN02)
glycolysis = experiment: Glycolysis (ECAR), Seahorse; conditions: BxPC-3 and CFPAC-1 cells
SH2-N647A = SH2-N647A (Homo sapiens, UniProt P40763, N647A); experiment: MST binding to STAT3-SH2 mutant N647A
Text: as §1, §2

[3] = Liver microsome stability, monkey
CYP2C19 = CYP2C19 (Homo sapiens, UniProt P33261); experiment: CYP2C19 inhibition; conditions: safety profiling
BxPC3 tumor = experiment: BxPC3 xenograft model; conditions: mouse, in vivo

Cn1c(C(=O)N2CCN(Cc3ccc(OCC(F)(F)F)cc3)CC2)cc2ccc(Oc3cnc(-c4nc(-c5ccc(C(F)(F)F)cc5)no4)cn3)cc21
Binding affinities (nM) (SH2-V637A): did not bind | Antitumor efficacy compared to BBI608 (MDA-MB-231 tumor; TNBC model, oral administration): superior antitumor efficacy compared to BBI608 | Antitumor efficacy in vivo (MDA-MB-231 tumor; orally): significant regression | Liver Microsomes t1/2 [1]: > 2 h | Antitumor activity, fold better than tested STAT3 inhibitors (Capan-2 cells): approximately 1000 fold | STAT3 nuclear translocation [2]: significantly inhibited STAT3 nuclear translocation | Binding affinities (nM) (SH2-E638A): did not bind | IC50 (CYP1A2): > 25 µM | Binding to mutant (STAT3-SH2D mutant I634A): did not bind | Kd (STAT3^127–722): 0.0183 µM | Direct binding affinity, fold better than tested STAT3 inhibitors (STAT3^127–722; vs Stattic): approximately 1000 fold | Plasma t1/2 (Plasma stability, human): > 2 h | OXPHOS in pancreatic cancer cells (OXPHOS): suppressed OXPHOS in pancreatic cancer cells in a concentration-dependent manner | Survival of tumor-bearing mice (PAN02-luc cells; independent experiment): significantly prolonged the survival | Tumor signal (bioluminescence) (PAN02-luc cells; mouse, in vivo): significantly inhibited tumor signal | Glycolysis (ECAR) (glycolysis): no significant impact on glycolysis | Binding affinities (nM) (SH2-N647A): did not bind | Liver Microsomes t1/2 [3]: > 2 h | IC50 (CYP2C19): > 25 µM | Tumor growth compared with vehicle (BxPC3 tumor): significant inhibition in tumor growth compared with vehicle treatment | Tumor growth inhibition compared with FLLL32 treatment groups (BxPC3 tumor): superior inhibition of tumor growth
